Molecular target: T1, Galanin receptor type 2 (Homo sapiens, UniProt O43603)
T1 sequence (O43603 whole entry): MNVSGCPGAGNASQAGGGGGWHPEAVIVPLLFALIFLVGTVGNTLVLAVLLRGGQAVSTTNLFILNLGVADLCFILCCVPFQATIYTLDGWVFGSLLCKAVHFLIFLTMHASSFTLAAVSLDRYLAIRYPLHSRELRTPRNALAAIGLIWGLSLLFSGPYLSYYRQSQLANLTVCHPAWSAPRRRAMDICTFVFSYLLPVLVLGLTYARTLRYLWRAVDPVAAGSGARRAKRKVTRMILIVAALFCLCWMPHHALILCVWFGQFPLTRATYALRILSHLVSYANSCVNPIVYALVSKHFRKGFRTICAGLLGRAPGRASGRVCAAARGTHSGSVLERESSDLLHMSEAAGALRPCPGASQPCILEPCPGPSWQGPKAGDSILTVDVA
Assay: Displacement of europium-labeled galanin from human GalR2 expressed in CHO-K1 cells
Format: cell-based

CCCCCCCCCCCCCCCC(=O)NCCCC[C@H](NC(=O)[C@@H](CCCCN)NC(=O)[C@@H](CCCCN)NC(=O)[C@@H]1CCCN1C(=O)CNC(=O)[C@H](CC(C)C)NC(=O)[C@H](CC(C)C)NC(=O)[C@H](Cc1ccc(O)cc1)NC(=O)CNC(=O)[C@H](C)NC(=O)[C@H](CO)NC(=O)[C@H](CC(N)=O)NC(=O)[C@H](CC(C)C)NC(=O)[C@@H](NC(=O)[C@H](Cc1c[nH]c2ccccc12)NC(=O)CNC)[C@@H](C)O)C(=O)N[C@H](CCCCN)C(N)=O
Ki: 15 nM
